Results from paper PMC1892040 (PLoS Medicine, 2007).
Read-outs that look alike come from different tables or passages of the source.

Amino acid sequences for entries named in this document (tags omitted). Residues count along the entry.
UniProt Q16881, 151-649: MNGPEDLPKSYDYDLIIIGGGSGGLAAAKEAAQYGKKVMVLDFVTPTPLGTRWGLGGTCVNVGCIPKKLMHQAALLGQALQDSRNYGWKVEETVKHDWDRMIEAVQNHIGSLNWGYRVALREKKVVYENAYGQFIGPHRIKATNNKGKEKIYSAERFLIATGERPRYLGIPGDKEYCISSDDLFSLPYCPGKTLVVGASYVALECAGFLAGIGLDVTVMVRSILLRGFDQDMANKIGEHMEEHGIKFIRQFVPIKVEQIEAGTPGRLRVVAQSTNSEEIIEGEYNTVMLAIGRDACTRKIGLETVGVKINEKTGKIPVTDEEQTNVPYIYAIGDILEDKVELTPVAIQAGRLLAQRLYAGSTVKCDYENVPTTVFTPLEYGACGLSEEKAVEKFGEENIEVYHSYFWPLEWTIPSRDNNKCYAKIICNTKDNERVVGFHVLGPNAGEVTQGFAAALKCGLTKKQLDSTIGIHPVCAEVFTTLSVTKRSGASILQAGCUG
UniProt P00390, 44-522 limits assumed: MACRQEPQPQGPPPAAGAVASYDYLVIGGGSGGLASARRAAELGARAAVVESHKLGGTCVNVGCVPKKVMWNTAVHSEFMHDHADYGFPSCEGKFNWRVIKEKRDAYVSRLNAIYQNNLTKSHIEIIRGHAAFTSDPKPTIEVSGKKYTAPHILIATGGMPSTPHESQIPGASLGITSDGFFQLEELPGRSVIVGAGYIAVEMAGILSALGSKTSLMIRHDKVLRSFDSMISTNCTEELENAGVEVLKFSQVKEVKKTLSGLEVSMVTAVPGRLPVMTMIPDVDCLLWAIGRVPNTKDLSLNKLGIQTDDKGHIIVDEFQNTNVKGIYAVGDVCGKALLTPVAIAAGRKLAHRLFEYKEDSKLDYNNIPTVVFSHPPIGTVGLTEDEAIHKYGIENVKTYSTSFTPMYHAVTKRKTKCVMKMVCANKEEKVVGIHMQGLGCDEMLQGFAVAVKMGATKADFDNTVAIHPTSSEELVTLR

What was measured:
Human TrxR [1] = target: T1, Human TrxR (Homo sapiens, UniProt Q16881); conditions: read-out: IC50 Human TrxR, DTNB/Trx; cited from earlier work
Human GR [2] = target: T2, Human GR (Homo sapiens, UniProt P00390); experiment: Inhibition of human GR (GSSG); assay type: biochemical; conditions: read-out: IC50 Human GR, GSSG; 50 μM GSSG under steady state conditions
Experimental: (§1) In order to assess the potential for inhibition of TGR we screened several structurally diverse series of compounds (Figure S1) known to act as inhibitors of disulfide reductases from various organisms. Screening was performed with a TGR assay using DTNB, including a 15 min preincubation of recombinant enzyme, inhibitor, and NADPH before addition of substrate (Table 3).

Human TrxR [3] = target: T1, Human TrxR; experiment: Inhibition of human TrxR (DTNB/Trx); assay type: biochemical; conditions: read-out: IC50 Human TrxR, preincubation 5 min at 25 °C, tested form: HCl
Experimental: as §1

Human GR [4] = target: T2, Human GR; conditions: read-out: IC50 Human GR, GSSG; tested form: HCl; cited from earlier work

Compound	IC50 (Human TrxR [1])	IC50 (Human GR [2])	IC50 (Human TrxR [3]; 21 μM Trx)	IC50 (Human TrxR [3]; 3 mM DTNB)	IC50 (Human GR [4])
CC1=C(CBr)C(=O)c2c(O)ccc(O)c2C1=O	0.08 µM	4.5 µM	–	–	–
CN(C)CCC(=O)/C=C/c1ccccc1Cl	–	–	1.1 µM	18.4 µM	> 1000 µM
